Only a part is listed here, and it is no random draw. The source made the active and inactive calls.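 Rule for the calls: active = GFP response relative to DMSO above a set limit, near the screen mean plus 3 SD (cut at about 150% in these data); inconclusive = Fewer than 70 cells measured for a yeast strain; inactive = the rest.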
Test: TOR pathway RTG branch CIT2 reporter changes – S. cerevisiae, GFP fusion, multiplex flow cytometry, MLPCN library, primary screen (AID 2029);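 note: ratio of well median GFP fluorescence to mean of DMSO wells on the plate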
Settings: S. cerevisiae CIT2-GFP strain, 3 h, at 10 µM, stronger effect = higher value, 100 means same as DMSO wells

Row | SMILES | GFP response vs DMSO
1 | O=[N+]([O-])c1ccc(OP2(=O)COCCO2)cc1 (stereo unspecified) | inactive: 95.5%
2 | CP(=O)(Nc1ccc(SC(F)(F)F)cc1)Oc1ccc(F)cc1 (stereo unspecified) | inactive: 103%
3 | CCOP(C)(=S)SCC(=O)NC(C)(CC)C(=O)O (stereo unspecified) | inactive: 103%
4 | CP(=O)(Nc1ccc2c(c1)OCCO2)Oc1ccccc1 (stereo unspecified) | inactive: 96.9%
5 | Cc1ccccc1NP(C)(=O)Nc1ccccc1C | inactive: 89.5%
6 | CCN(CC)CC(O)COC(=O)C(O)(c1ccccc1)C1CCCCC1 (stereo unspecified) | inactive: 102%
7 | COc1ccc(OP(C)(=O)Nc2ccc(Br)cc2)cc1 (stereo unspecified) | inactive: 98.6%
8 | CP(=O)(Oc1ccccc1)N1CCOC1=O (stereo unspecified) | inactive: 104%
9 | CCc1ccc(OP(C)(=O)Nc2cccnc2)cc1 (stereo unspecified) | inactive: 105%
10 | COc1ccccc1OP(C)(=O)Nc1c(C)n(C)n(-c2ccccc2)c1=O (stereo unspecified) | inactive: 101%
11 | O=C(OCCCN1CCCC1)C(O)(c1ccccc1)C1CCCCC1 (stereo unspecified) | inactive: 104%
12 | CP(=O)(Nc1ccc(Cl)cc1)Oc1ccc(F)cc1 (stereo unspecified) | inactive: 64.7%
13 | CC(C)(C)c1ccc(OP(C)(=O)O)cc1 | inactive: 99.7%
14 | COc1ccccc1OP(C)(=O)Nc1ccccc1Br (stereo unspecified) | inactive: 97.6%
15 | CN(C)C(=O)c1c([N+](=O)[O-])cc([N+](=O)[O-])cc1[N+](=O)[O-] | inactive: 89.3%
16 | Nc1ccc2c(ccc3cccnc32)n1.O=[N+]([O-])c1cc([N+](=O)[O-])c(O)c([N+](=O)[O-])c1 | inactive: 103%

Row | SMILES | GFP response vs DMSO
17 | CP(=O)(OC12CC3CC(CC(C3)C1)C2)OC12CC3CC(CC(C3)C1)C2 | inactive: 110%
18 | CCOC(=O)c1ccc(NP(C)(=O)Oc2ccc(Cl)cc2)cc1 (stereo unspecified) | inactive: 98%
19 | Cc1cc(C)cc(OP(C)(=O)Nc2cccc(C(F)(F)F)c2)c1 (stereo unspecified) | inactive: 96.3%
20 | COc1ccc(OP(C)(=O)Nc2ccccc2Br)cc1 (stereo unspecified) | inactive: 86%
21 | COc1ccccc1OP(C)(=O)Nc1ccc(C)c(C)c1 (stereo unspecified) | inactive: 90.9%
22 | Cc1nc2ccc3ccccc3c2o1.O=[N+]([O-])c1cc([N+](=O)[O-])c(O)c([N+](=O)[O-])c1 | inactive: 103%
23 | CP(=O)(OCCOc1ccccc1)OCCOc1ccccc1 | inactive: 99.8%
24 | CP(=O)(Nc1ccc(Cl)cc1Cl)Oc1ccccc1 (stereo unspecified) | inactive: 85.4%
25 | COc1ccccc1OP(C)(=O)Nc1ccc(Br)cc1 (stereo unspecified) | inactive: 100%
26 | CN(C)CCOC(=O)C(O)(c1ccccc1)C1CCCC1 (stereo unspecified) | inactive: 101%
27 | COc1ccc(OP(C)(=O)Nc2ccccn2)cc1 (stereo unspecified) | inactive: 101%
28 | O=[N+]([O-])c1cc([N+](=O)[O-])c(Nc2ccccn2)c([N+](=O)[O-])c1 | inactive: 77.9%
29 | Cc1c(NP(C)(=O)Oc2ccc(C(C)C)cc2)c(=O)n(-c2ccccc2)n1C (stereo unspecified) | inactive: 102%
30 | CCc1ccc(OP(C)(=O)O)cc1 | inactive: 109%
31 | CP(=O)(Nc1ccccn1)Oc1ccccc1 (stereo unspecified) | inactive: 99.5%

From PubChem BioAssay AID2029 (NMMLSC, 2009)
